In patent US9963458B2, “Indole and indoline-type piperidine compounds and uses thereof” (priority 2012, dated 2018):

Assays:
[1] = biological target: human kappa opioid receptor (Homo sapiens, UniProt P41145); assay: κ-opioid receptor binding assay ([3H]-U69,593 displacement); conditions: read-out: Ki for the κ-opioid receptor
[2] = biological target: T1, human opioid receptor-like (ORL-1) (Homo sapiens, UniProt P41146); assay: ORL-1 receptor [35S]GTPγS functional binding assay; type: biochemical; conditions: mean ± SEM; procedure of Example 7
[3] = biological target: recombinant delta opioid receptor expressed in CHO-K1 cells (Homo sapiens, UniProt P41143); assay: δ-opioid receptor binding assay ([3H]-Naltrindole displacement); conditions: read-out: Ki for the δ-opioid receptor
human μ-opioid receptors = human μ-opioid receptors (Homo sapiens, UniProt P35372); assay: μ-opioid receptor binding assay ([3H]-diprenorphine displacement); conditions: read-out: Ki for the μ-opioid receptor
[4] = biological target: T1, human opioid receptor-like (ORL-1); assay: In vitro ORL-1 receptor binding assay ([3H]-nociceptin displacement); conditions: for Ki: read-out: ORL-1 Ki, Average ± Std Deviation, procedure of Example 6

Row | SMILES | Ki [1] | ORL-1 GTPγS Emax [2] | Ki [3] | Ki (human μ-opioid receptors) | selectivity for the ORL-1 receptor relative to the μ-opioid receptor, δ-opioid receptor and κ-opioid receptor [4] | Ki [4]
1 | O=C(O)Cc1cn([C@H]2C[C@H]3CCC[C@@H](C2)N3C2CCCCCCCCC2)c2ccccc12 [Compound 23, 2-(1-((1R,3r,5S)-9-cyclodecyl-9-azabicyclo[3.3.1]nonan-3-yl)-1H-indol-3-yl)acetic acid] | > 20000 nM | 74.33 ± 2.85% | > 20000 nM | > 20000 nM | several orders of magnitude | 25.5 nM
2 | O=C(O)Cc1cn([C@H]2C[C@H]3CCC[C@@H](C2)N3[C@H]2C[C@@H]3CCC[C@@H](C3)C2)c2ccccc12 [Compound 7] |  | 0.33 ± 0.67% |  |  |  | 3.02 nM
3 | c1ccc2c(c1)ccn2[C@H]1C[C@H]2CCC[C@@H](C1)N2[C@H]1C[C@@H]2CCC[C@@H](C2)C1 [Compound 11] |  | 23.5 ± 1.26% |  |  |  | 1.73 nM
4 | NC(=O)C(=O)c1cn([C@H]2C[C@H]3CCC[C@@H](C2)N3[C@H]2C[C@@H]3CCC[C@@H](C3)C2)c2ccccc12 |  |  |  |  |  | 1 nM
5 | O=C(O)C(=O)c1cn([C@H]2C[C@H]3CCC[C@@H](C2)N3[C@H]2C[C@@H]3CCC[C@@H](C3)C2)c2ccccc12 |  | 9 ± 8% |  |  |  | 3.98 nM
